# Literature values, collected in US9044437B2, “Method for treating alzheimer's disease using pharmacological chaperones to increase the activity of gangliosidases” (Amicus Therapeutics, Inc., priority 2009, dated 2015).
# Biological target: T1, Neu 4 (Homo sapiens, UniProt Q8WWR8)
# T1 sequence (Q8WWR8 1-484): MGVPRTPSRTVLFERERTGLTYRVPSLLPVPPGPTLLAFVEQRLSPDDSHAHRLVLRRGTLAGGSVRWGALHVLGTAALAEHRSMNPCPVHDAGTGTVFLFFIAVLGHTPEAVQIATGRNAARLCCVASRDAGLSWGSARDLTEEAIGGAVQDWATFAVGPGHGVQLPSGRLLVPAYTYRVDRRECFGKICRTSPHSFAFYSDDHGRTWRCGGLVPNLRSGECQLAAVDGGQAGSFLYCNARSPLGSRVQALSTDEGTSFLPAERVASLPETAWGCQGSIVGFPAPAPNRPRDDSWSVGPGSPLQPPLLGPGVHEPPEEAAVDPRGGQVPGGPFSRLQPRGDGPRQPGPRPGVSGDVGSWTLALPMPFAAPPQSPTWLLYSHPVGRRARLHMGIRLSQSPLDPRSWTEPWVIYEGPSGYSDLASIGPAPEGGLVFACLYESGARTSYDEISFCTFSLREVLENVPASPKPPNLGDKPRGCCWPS
# Conditions: marked *: Values reported in the literature; cited from earlier work
compound,measurement,value
"CC(=O)N[C@H]1[C@H]([C@H](O)[C@H](O)CO)OC(C(=O)O)=C[C@@H]1O [DANA, 2-deoxy-2,3-dehydro-N-acetylneuraminic acid]",IC50,74 µM
